In patent US6841172B1, “Method for iron delivery to a patient by transfer from dialysate” (HemoCleanse, Inc., priority 1996, dated 2005):

Experiments:
[1] = Solubility of ferrous gluconate in dialysate concentrate; assay type: physicochemical
Method: The high concentration of solutes in a dialysate concentrate results in a reduced amount of water which is available to dissolve additional solutes. Therefore, the most preferred iron complexes used in accordance with the invention are highly soluble. […] In contravention of this belief, the present inventor has discovered, for example, that ferrous gluconate is stably soluble in such a concentrate at levels over 8 grams per 100 ml (dl), thus providing an iron concentration of about 1 gram per 100 ml. As is readily ascertainable by one skilled in the art, this would result in an iron concentration in dialysate of approximately 30 mg (30,000 μg) per 100 ml after a 35:1 dilution.

[2] = after intravenous injection; cited from earlier work
[3] = delivered intraperitoneally; cited from earlier work

Row | Substance | iron concentration provided in the concentrate ([1]; at over 8 grams ferrous gluconate per 100 ml concentrate) | stably soluble level in dialysate concentrate ([1]; dialysate concentrate) | fraction of iron bio-available for red cell production [2] | fraction of iron bioavailable [3] | fraction stored permanently in the body, not available for red cell production [3]
1 | ferrous gluconate | about 1 gram per 100 ml | over 8 grams per 100 ml | – | – | –
2 | iron dextran | – | – | about half | about half | about 50%
